# Measurements reported in PubChem BioAssay AID1259421 (Broad Institute, 2018).
# This is a selection; strong and weak results do not stand in their true shares. Active and inactive are the calls of the source. No stated cut-off is given here; in the data, active means activity change below about -70%; inconclusive means no clear call, values can overlap the other calls; inactive means above that.
# Test: Toxoplasma gondii ME49Luc growth in HeLa cells, luciferase, no IFN-y, primary screen (AID 1259421)
# Settings: T. gondii ME49Luc in HeLa, 72 h, stronger effect = lower value, concentration not given here
row,Structure (SMILES),"activity change, negative = inhibition"
1,OCCSCCO,inactive: 11.9%
